PubChem BioAssay AID1010 (Sanford-Burnham Center for Chemical Genomics, 2008)
Only a part is listed here, and it is no random draw. Calls of active or inactive are those of the source.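 How the source made its calls: active means survival measured by cellular ATP above 50% at 15 µg/ml in the first screen; inactive means the rest.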

Assay: protection against thapsigargin ER stress killing – CSM14.1 cells, ATP luminescence, primary screen (AID 1010);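 further: cell death triggered by about 15 µM thapsigargin; ATP read 24 h after thapsigargin was added; plate controls were thapsigargin with DMSO for no effect and DMSO without thapsigargin for full effect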
Conditions: CSM14.1 thapsigargin ER stress survival, stronger effect = higher value, screened at 15 µg/mL (by protocol)

| SMILES | relative survival (cellular ATP) |
| --- | --- |
| Cc1ccc(SC(NC(=O)c2ccccc2)C(Cl)Cl)cc1 (stereo not given) | inactive: 8.4% |
| Cc1cc(C)nc(SC(NC(=O)c2ccccc2)C(Cl)(Cl)Cl)n1 (stereo not given) | inactive: 15% |
| O=C(NC(SC1=NCCS1)C(Cl)(Cl)Cl)c1ccc(I)cc1 (stereo not given) | inactive: 0.7% |
| O=C(CF)NC(Sc1ccc(Cl)cc1)C(Cl)(Cl)Cl (stereo not given) | inactive: 4.8% |
| COC(=O)c1ccc(OP(=O)(Oc2ccc(Cl)cc2C)SCC(C)C)cc1 (stereo not given) | inactive: -8.5% |
| CCCCOP(=O)(OCCCC)SC | inactive: 8.1% |
| COC(=O)NC(Sc1ccc(Cl)cc1)C(Cl)Cl (stereo not given) | inactive: 3.8% |
| CCOC(=O)NC(Sc1nc2ccccc2o1)C(Cl)(Cl)Cl (stereo not given) | inactive: -0.5% |
| O=CNC(Sc1nc2ccccc2o1)C(Cl)(Cl)Cl (stereo not given) | inactive: 2.3% |
| CCCCSP(=O)(OCC(C)C)OCC(C)C | inactive: 11.4% |
